# Data taken from ChEMBL document CHEMBL1128541 (J Med Chem, 1995).
# Target: cGMP-specific 3',5'-cyclic phosphodiesterase (Homo sapiens, UniProt O76074)
# Experiment: Inhibitory activity against phosphodiesterase 5 from human platelets
row,IC50 [nM],Structure (SMILES)
1,1200,c1ccc(Nc2nc(-c3ccncc3)nc3ccccc23)cc1
2,1300,O=[N+]([O-])c1cccc(CNc2nc(-c3ccccc3)nc3ccccc23)c1
